## AlphaSeq binding of Ab-14 light chain variants to a spike HR2 peptide

Data: MIT Lincoln Laboratory AlphaSeq set, Li et al. 2023, doi:10.1038/s41467-023-39022-2, as distributed in FLAb.

Target peptide (SARS-CoV-2 spike, HR2 region): PDVDLGDISGINAS

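These sequences belong to a second round, designed from the earlier measurements on random variants of the parent. Their group label is 14L_En_Gen (En: ensemble of fine-tuned language models; Gen: genetic algorithm). The scFvs were displayed on barcoded MATa yeast, the peptide on MATalpha yeast. Binding brings cells together so that they mate, and sequencing counts the barcode pairs among the diploids. Each replicate has its own calibration line, from reference interactions of the BCL2 family. Mating was done six times.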

The variants keep the heavy chain, the linker and the frameworks of Ab-14 (scFv order VH, three GGGGS repeats, VL).
VH: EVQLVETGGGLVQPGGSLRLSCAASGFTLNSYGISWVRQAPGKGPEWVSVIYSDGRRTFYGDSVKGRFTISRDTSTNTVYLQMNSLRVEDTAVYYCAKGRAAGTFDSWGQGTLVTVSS
VL: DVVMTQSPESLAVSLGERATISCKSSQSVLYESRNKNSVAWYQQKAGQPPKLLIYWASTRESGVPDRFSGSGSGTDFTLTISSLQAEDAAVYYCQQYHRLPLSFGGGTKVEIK

Variants are written as CDR1, CDR2 and CDR3 of the light chain (limits as in the source). Parent: KSSQSVLYESRNKNSVA, WASTRES, QQYHRLPLS. Numbers give log10(Kd / nM), so 0 is 1 nM and 3 is 1 µM. Smaller is tighter. Where no diploid with the target was found in that replicate, the entry reads "nd": below detection, most likely a poor binder, though not proof of it. The authors averaged sequences with at least three values out of six and counted those with two or fewer as poor binders. As a blank, each scFv also met three strains without target: over all light chain designs, 4% of these pairings were detected, typically at 2.64 and seldom below 1.59. The control count says in how many pairings with the empty strains this scFv gave a signal. Values of this round are not directly comparable with the first-round values of the same sequences.

Variant KLSSVIGTEKVHGNNVA, EMETREN, QQYDRLPLS gave 1.42, 2.25, 0.47, 1.02, 1.57, 1.22 (controls 0 of 18).
Variant MISNVMNTLTHVGNNVA, DLAEREQ, QQYFRLPLS gave 1.09, 1.04, nd, 0.52, 1.01, 1.49 (controls 0 of 18).
Variant KIVGTLNQLMHKKNNVA, DLVMREN, QQYFRLPLS gave 1.56, 1.80, 1.31, 0.95, 2.37, 1.25 (controls 0 of 18).
Variant QLTMITGHVSMIKNNVA, EMETREN, QQYDRLPLS gave 1.21, 1.44, 0.49, 1.17, 2.42, 1.05 (controls 0 of 18).
Variant MMSQVTGQGQKHRNNVA, QTSTREP, QQYDRLPLI gave 1.37, 0.70, 0.64, 1.21, 1.03, 1.04 (controls 0 of 18).
Variant KVSSFMRGLMMRKDSIA, DNETRQS, QQYDRLPLS gave 1.24, 1.19, 2.64, 1.13, 1.10, 1.35 (controls 1 of 18).
Variant HMSALTLQGMRHRNSVA, QMTTREN, QQYDHLPLS gave 0.77, 1.17, 1.46, 2.88, 0.82, 1.33 (controls 0 of 18).
Variant TLTQITGTEKVKGNNVA, EMETRER, QQYNRLPLS gave 0.67, -0.22, -0.21, -0.44, -0.31, 0.14 (controls 0 of 18).
Variant HLGLVTMSEQAVRNSVA, NNSTREE, QQYDRLPLS gave 1.56, 2.72, nd, nd, 1.91, 2.24 (controls 2 of 18).
Variant QLSMITGHYSMIKNNVA, EMETREN, QQYDRLPLS gave 2.11, 2.47, 1.68, 1.89, 1.33, 1.92 (controls 1 of 18).
Variant MISQLWNMGQFAINSVA, QASLRCN, QQYDRLPLT gave 2.30, 2.23, nd, nd, 2.55, 3.07 (controls 0 of 18).
Variant TIQQMMSLFSQTINNVA, EVSTREN, QQYDRLPLA gave 0.66, 0.60, 0.81, 1.44, 1.04, 1.13 (controls 0 of 18).
Variant MLSQMWAIGQKVKNSVA, QASMRFN, QQYDRLPLE gave 1.16, 1.59, 1.30, 1.33, 1.63, 1.68 (controls 1 of 18).
Variant HITYGMQVAGRHSSSIA, QAETRAK, QQYDRLPLI gave nd, -0.95, -0.35, nd, 0.25, nd (controls 0 of 18).
Variant IVSQLMLIGMHAKNSIA, EASTRNN, QQYHRLPLI gave 1.72, 1.55, nd, nd, 1.27, 2.24 (controls 1 of 18).
Variant TIGGTLMWGVMNRSNVA, EVSQRLN, QQYDRLPLI gave 1.10, 1.38, 1.54, 1.42, 1.01, 1.53 (controls 1 of 18).
Variant KISQMVRVGMTHGNSIA, EEATRAK, QQYHRLPLA gave 1.64, 1.43, 1.47, 1.49, 1.91, 1.48 (controls 1 of 18).
Variant TIGGTLMYGVRNRSNVA, EVSQRLN, QQYDRLPLI gave 2.35, 1.57, 1.47, 1.74, 1.56, 2.07 (controls 2 of 18).
Variant QISGITGHQSMSKNNVA, EMETREN, QQYDRLPLS gave 0.28, 0.52, 0.86, 1.38, 1.86, 1.19 (controls 0 of 18).
Variant KLSMLTEMSHVNRNSVA, ELVTRMA, QQYNRLPLS gave 1.16, 0.82, 1.03, 0.95, 0.89, 1.21 (controls 0 of 18).
Variant KIGMTLNQLMHKKNNVA, DLVMRES, QQYHRLPLS gave 0.34, 1.17, 0.38, 0.99, 0.29, 0.83 (controls 2 of 18).
Variant MVSQLMLWGIHAKNSIA, EAQTRLN, QQYDRLPLF gave nd, nd, 3.38, 2.08, 2.54, 3.47 (controls 0 of 18).
Variant TISQMTSWQSNKKNSVA, EVTLREE, QQYDRLPLI gave 0.76, 0.40, 0.74, 0.95, 0.66, 0.99 (controls 2 of 18).
Variant MISQLMNMGQFAINSVA, QAEIRNN, QQYDRLPLA gave -0.04, 0.02, -0.34, -0.01, -0.28, 0.02 (controls 2 of 18).
Variant MMSQVTALGQRHRNNVA, QTSTREE, QQYDRLPLI gave 1.28, 1.12, 0.98, 0.95, 1.20, 0.76 (controls 2 of 18).
Variant MISQLYNMGTFAINSVA, QASERSN, QQYDRLPLM gave 1.42, 2.25, 1.45, 1.74, 1.89, 2.03 (controls 1 of 18).
Variant MISQIYNMGTFAINSVA, QASIRNA, QQYDRLPLV gave nd, 2.15, nd, 1.48, 1.73, 1.88 (controls 0 of 18).
Variant MISNVMNTLTHVGNNVA, DLAERED, QQYFRLPLS gave 0.24, 0.15, 0.60, -0.07, -0.24, -0.26 (controls 0 of 18).
Variant MLSEVLHMLGAKKNSIA, DLVLRAN, QQYHRLPLM gave nd, 1.39, 1.53, 2.43, 2.19, nd (controls 0 of 18).
Variant MISQLMNLGQFAINSVA, QAEEREN, QQYDRLPLI gave nd, 2.67, nd, 2.45, nd, nd (controls 2 of 18).
Variant MISQLMNMGQFAINSVA, QASIRNQ, QQYDRLPLV gave nd, 1.54, 1.71, 1.39, 1.49, 2.02 (controls 0 of 18).
Variant MISQLYNMGQFAINSVA, QAEERYN, QQYDRLPLM gave 2.95, 3.69, nd, nd, 2.67, 2.80 (controls 0 of 18).
Variant HLSAMWGLESVKHNNVA, ENNTREQ, QQYDRLPLS gave 1.60, 1.38, 0.94, 1.09, 1.06, 1.19 (controls 2 of 18).
Variant KIGATLNMLEHKQNNVA, DLVTREN, QQYHRLPLS gave 0.24, 0.29, 0.25, 0.14, 0.11, 0.30 (controls 3 of 18).
Variant IIDQIMYHGNKSANSIA, QASQRLN, QQYHHLPLI gave 1.41, 1.19, 1.09, 1.04, 1.48, 1.68 (controls 1 of 18).
Variant KLSMITGHMHMSKNNVA, EMVTREN, QQYDRLPLS gave 0.87, 0.66, 1.04, 0.84, 0.70, 0.94 (controls 0 of 18).
Variant HLGLATMLEEYVRNSVA, NNSTREV, QQYDRLPLS gave 2.95, nd, 2.23, 2.38, 3.84, 2.67 (controls 1 of 18).
Variant IVSQLMLWGMHHKNSIA, EAQTRLN, QQYDRLPLI gave nd, 3.53, 2.67, nd, nd, nd (controls 0 of 18).
Variant KLVQFMNRGTHHTSNIA, DAQNRND, QQYARLPLA gave 0.69, 0.57, 0.62, 0.61, 0.62, 0.72 (controls 1 of 18).
Variant TIADVMGHMSKNRNNVA, DMDTRGQ, QQYNRLPLS gave 0.01, -0.34, -0.26, -0.47, -0.28, -0.22 (controls 0 of 18).
Variant IVSQLMLWGMHVKNSIA, EAQTRVN, QQYERLPLF gave nd, 2.17, 2.05, nd, nd, 2.64 (controls 0 of 18).
Variant MIGEMLMQGQYIRNSVA, QANIRAQ, QHYHRLPLE gave 1.78, 1.12, 2.18, 1.10, 1.39, 1.76 (controls 1 of 18).

6 of these entries, quoted again:

{"CDR-L1": "TIGGTLMWGVMNRSNVA", "CDR-L2": "EVSQRLN", "CDR-L3": "QQYDRLPLI", "replicates, log10 nM": "1.10, 1.38, 1.54, 1.42, 1.01, 1.53", "signal with controls": "1 of 18"}
{"CDR-L1": "KIGATLNMLEHKQNNVA", "CDR-L2": "DLVTREN", "CDR-L3": "QQYHRLPLS", "replicates, log10 nM": "0.24, 0.29, 0.25, 0.14, 0.11, 0.30", "signal with controls": "3 of 18"}
{"CDR-L1": "MISQLWNMGQFAINSVA", "CDR-L2": "QASLRCN", "CDR-L3": "QQYDRLPLT", "replicates, log10 nM": "2.30, 2.23, nd, nd, 2.55, 3.07", "signal with controls": "0 of 18"}
{"CDR-L1": "IVSQLMLWGMHVKNSIA", "CDR-L2": "EAQTRVN", "CDR-L3": "QQYERLPLF", "replicates, log10 nM": "nd, 2.17, 2.05, nd, nd, 2.64", "signal with controls": "0 of 18"}
{"CDR-L1": "QLTMITGHVSMIKNNVA", "CDR-L2": "EMETREN", "CDR-L3": "QQYDRLPLS", "replicates, log10 nM": "1.21, 1.44, 0.49, 1.17, 2.42, 1.05", "signal with controls": "0 of 18"}
{"CDR-L1": "HLGLATMLEEYVRNSVA", "CDR-L2": "NNSTREV", "CDR-L3": "QQYDRLPLS", "replicates, log10 nM": "2.95, nd, 2.23, 2.38, 3.84, 2.67", "signal with controls": "1 of 18"}